Data on one compound can be found in ChEMBL document CHEMBL1131628 (J Med Chem, 1998).

Protein sequences, listed by entry. Tags and fused reporters are not part of them.
UniProt P26684, whole entry: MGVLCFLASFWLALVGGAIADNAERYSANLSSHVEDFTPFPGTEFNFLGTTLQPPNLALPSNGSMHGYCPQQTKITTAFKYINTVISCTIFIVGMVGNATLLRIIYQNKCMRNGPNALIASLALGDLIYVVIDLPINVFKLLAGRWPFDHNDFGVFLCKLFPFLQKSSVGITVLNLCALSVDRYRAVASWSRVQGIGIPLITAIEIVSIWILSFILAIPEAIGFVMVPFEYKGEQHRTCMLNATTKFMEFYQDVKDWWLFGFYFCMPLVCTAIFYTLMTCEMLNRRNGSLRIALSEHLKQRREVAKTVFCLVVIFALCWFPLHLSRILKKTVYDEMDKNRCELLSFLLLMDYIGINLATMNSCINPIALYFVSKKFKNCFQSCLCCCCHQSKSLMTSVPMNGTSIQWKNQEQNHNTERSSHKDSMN

The term IC50 denotes the midpoint of a concentration-inhibition curve.

The target in this test is Endothelin-1 receptor (Rattus norvegicus, UniProt P26684). In words: Binding affinity for endothelin A receptor by measuring its ability to displace [125I]ET1 from prolactin secreting rat pituitary cells(MMQ). The class given is cell-based, Pituitary gland cell.

With `CCCCN(CCCC)C(=O)CN1C[C@H](c2ccc3c(c2)OCO3)[C@@H](C(=O)O)[C@@H]1C(C)(C)CCCC`, the IC50 came out at 1300 nM.
